1 compound from patent US9096593B2, “Compounds and methods for kinase modulation, and indications therefor” (Plexxikon Inc., priority 2009, dated 2015) can be followed below.

By UniProt entry, the sequences of proteins in these tests, tags left out. Residues count along the entry.
UniProt P07333, 20-972 limits assumed: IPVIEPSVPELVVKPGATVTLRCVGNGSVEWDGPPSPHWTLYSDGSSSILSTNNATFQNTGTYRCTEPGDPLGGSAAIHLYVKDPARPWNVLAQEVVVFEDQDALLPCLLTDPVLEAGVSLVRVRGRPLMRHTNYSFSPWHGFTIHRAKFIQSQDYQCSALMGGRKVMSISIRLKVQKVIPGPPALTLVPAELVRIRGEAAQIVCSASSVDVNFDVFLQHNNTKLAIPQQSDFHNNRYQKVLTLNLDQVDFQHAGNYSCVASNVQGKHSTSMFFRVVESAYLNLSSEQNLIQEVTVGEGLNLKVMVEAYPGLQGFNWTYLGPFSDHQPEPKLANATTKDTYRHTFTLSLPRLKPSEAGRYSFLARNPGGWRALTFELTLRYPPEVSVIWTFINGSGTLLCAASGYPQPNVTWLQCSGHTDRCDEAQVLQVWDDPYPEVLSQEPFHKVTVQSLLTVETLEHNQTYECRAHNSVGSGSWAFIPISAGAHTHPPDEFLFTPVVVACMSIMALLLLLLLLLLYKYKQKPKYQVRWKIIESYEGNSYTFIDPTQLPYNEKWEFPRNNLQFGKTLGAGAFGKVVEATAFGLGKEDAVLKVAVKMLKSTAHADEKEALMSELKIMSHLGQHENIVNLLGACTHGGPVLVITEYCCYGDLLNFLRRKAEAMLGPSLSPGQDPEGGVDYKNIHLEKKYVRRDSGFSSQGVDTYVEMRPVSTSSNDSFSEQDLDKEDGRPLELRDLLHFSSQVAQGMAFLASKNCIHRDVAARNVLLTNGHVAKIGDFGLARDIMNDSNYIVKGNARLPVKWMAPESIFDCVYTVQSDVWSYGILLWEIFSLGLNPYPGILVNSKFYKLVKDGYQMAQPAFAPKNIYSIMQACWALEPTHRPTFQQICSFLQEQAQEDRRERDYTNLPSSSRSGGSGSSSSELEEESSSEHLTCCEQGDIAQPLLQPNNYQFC
UniProt P33261, whole entry: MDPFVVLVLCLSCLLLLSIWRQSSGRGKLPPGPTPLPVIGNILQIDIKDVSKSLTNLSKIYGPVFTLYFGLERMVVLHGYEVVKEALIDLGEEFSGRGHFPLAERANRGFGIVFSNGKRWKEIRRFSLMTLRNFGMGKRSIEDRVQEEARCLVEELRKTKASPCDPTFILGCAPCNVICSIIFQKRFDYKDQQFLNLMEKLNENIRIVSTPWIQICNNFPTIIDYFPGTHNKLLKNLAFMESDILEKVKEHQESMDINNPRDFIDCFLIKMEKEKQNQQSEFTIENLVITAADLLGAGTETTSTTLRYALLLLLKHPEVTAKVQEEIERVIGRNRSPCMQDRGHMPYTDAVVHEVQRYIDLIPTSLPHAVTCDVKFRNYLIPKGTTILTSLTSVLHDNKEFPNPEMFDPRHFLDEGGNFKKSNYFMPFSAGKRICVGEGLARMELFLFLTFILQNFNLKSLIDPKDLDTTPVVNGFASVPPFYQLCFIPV
UniProt P08684, whole entry: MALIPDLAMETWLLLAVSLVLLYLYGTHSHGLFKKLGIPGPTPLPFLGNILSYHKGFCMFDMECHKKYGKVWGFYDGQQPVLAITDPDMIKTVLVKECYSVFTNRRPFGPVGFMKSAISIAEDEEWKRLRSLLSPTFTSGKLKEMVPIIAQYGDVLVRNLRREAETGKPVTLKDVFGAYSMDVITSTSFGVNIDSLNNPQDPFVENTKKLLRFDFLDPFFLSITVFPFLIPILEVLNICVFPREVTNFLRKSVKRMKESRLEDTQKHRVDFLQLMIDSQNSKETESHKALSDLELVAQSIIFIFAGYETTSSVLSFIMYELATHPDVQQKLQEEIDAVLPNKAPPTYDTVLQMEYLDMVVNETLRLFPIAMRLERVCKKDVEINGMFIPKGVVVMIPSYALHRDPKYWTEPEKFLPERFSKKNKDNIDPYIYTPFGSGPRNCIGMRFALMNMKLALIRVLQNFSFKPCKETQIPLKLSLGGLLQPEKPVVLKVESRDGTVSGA
UniProt P10635, whole entry: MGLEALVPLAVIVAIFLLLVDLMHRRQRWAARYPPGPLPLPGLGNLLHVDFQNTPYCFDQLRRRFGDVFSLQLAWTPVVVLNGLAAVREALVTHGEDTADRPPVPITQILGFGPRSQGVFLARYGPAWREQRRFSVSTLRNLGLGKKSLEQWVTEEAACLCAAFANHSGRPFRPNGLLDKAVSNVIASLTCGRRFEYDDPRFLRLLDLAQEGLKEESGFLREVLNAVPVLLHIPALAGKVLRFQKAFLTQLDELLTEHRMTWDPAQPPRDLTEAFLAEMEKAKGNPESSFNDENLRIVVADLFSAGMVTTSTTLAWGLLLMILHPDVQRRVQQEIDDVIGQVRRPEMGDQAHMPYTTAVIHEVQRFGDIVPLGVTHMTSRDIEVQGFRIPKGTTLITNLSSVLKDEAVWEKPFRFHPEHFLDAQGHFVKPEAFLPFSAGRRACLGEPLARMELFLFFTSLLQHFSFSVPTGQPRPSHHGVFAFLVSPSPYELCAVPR
UniProt P11712, whole entry: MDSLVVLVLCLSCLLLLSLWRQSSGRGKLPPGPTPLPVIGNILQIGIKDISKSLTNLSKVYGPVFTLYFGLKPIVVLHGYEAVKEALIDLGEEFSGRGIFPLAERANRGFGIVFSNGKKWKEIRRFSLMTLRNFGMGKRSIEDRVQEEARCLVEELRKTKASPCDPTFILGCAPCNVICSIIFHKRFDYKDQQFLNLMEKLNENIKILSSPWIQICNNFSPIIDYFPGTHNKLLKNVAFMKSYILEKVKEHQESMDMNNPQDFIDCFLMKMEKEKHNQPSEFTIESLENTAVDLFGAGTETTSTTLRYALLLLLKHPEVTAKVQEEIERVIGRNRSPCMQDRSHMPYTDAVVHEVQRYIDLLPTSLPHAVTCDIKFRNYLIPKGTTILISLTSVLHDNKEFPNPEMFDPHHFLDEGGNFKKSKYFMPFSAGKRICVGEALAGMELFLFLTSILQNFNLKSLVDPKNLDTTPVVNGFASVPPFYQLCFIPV
UniProt P10721, 26-976 limits assumed: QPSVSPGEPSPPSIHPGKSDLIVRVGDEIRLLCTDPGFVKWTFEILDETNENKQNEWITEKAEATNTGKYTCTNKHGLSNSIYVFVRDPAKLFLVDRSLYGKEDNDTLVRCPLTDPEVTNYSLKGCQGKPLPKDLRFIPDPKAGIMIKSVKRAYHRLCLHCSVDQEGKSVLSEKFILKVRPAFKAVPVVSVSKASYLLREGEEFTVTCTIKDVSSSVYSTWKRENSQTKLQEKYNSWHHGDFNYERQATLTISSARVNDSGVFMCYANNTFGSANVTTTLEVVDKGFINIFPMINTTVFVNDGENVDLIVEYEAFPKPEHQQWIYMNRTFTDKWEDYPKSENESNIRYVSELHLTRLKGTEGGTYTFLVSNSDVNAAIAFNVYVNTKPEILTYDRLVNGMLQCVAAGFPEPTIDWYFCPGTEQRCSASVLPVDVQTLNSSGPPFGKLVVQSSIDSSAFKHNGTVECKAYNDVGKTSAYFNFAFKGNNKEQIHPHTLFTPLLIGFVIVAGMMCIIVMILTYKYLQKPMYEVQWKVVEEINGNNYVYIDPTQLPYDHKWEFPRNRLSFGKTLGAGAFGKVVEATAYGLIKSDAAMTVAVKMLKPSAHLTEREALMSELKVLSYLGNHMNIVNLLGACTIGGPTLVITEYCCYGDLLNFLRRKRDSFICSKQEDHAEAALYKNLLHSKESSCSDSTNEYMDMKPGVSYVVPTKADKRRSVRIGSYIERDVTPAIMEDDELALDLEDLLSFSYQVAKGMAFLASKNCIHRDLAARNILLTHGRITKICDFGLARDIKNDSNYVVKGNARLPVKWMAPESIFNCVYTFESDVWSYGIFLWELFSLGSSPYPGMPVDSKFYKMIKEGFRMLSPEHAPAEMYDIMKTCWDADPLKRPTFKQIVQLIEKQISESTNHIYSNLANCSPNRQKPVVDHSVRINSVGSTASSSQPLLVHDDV
UniProt P36888, 27-993 limits assumed: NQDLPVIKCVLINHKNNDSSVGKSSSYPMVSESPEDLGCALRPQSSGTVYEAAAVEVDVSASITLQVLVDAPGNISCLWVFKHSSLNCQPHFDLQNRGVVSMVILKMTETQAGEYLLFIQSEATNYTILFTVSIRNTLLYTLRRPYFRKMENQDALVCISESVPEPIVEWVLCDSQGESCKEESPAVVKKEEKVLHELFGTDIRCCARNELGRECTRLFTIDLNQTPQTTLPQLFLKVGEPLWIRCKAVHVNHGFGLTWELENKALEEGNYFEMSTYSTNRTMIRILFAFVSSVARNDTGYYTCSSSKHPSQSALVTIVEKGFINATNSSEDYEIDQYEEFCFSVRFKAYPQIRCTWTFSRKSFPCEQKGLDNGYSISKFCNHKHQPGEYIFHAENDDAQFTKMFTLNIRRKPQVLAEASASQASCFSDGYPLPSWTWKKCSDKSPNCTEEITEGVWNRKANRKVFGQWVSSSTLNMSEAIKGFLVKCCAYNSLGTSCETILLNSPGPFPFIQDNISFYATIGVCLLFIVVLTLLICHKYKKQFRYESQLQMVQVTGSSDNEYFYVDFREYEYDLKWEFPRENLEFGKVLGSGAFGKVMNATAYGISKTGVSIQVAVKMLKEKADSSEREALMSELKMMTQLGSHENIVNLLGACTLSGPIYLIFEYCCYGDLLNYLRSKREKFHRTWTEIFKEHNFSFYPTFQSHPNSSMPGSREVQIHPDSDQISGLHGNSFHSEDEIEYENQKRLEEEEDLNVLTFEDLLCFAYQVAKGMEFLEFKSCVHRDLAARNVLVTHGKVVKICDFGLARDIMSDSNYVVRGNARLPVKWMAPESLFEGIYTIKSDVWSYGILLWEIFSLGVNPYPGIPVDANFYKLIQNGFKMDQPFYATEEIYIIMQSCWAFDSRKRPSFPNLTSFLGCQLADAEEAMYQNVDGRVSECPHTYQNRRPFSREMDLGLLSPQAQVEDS
UniProt P05177, whole entry: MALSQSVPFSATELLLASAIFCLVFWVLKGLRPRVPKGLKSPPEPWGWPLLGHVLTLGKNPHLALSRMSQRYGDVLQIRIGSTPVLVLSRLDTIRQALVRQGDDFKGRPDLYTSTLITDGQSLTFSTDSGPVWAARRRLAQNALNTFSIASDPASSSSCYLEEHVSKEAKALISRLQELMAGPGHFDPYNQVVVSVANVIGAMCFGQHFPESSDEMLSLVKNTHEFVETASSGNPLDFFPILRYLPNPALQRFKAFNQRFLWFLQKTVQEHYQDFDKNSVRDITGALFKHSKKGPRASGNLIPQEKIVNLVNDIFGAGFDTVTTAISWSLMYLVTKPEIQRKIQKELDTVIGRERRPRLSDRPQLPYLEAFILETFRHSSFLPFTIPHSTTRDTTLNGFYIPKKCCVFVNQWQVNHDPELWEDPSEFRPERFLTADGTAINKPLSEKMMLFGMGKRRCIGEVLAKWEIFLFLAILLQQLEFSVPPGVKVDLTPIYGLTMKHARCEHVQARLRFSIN

Data set [1] deals with Osteoclast precursor cells. Put plainly: Osteoclast differentiation assay (acid phosphatase readout). The settings on record: read-out: IC50 in the osteoclast differentiation assay; RANKL and M-CSF.
The next data set deals with MV-4-11 cells. Put plainly: MV-4-11 cell proliferation assay (ATPlite). The settings on record: read-out: Cell based (IC50 μM) MV-4-11 (Flt-3), 3 days.
A further data set deals with BCR-FMS/BaF3 cells (Homo sapiens, UniProt P07333). Put plainly: BCR-FMS/BaF3 cell proliferation assay (ATPlite). The settings on record: for IC50: BCR-FMS/BaF3 cells. It is filed as cell-based. For orientation: Cellular ATP, detected with luciferase, serves as a proxy for viable cell number.
The target of a further data set is CYP2C19 (Homo sapiens (Human), UniProt P33261). Put plainly: CYP enzyme inhibition, fluorescent substrate. The following applies: read-out: Cyp IC50 (μM) 2C19. Type of data set: in vitro ADME.
A further data set addresses CYP3A4(BQ) (Homo sapiens (Human), UniProt P08684). Put plainly: CYP enzyme inhibition, fluorescent substrate. Type of data set: in vitro ADME. The settings on record: read-out: Cyp IC50 (μM) 3A4(BQ).
For another data set, the target named is CYP2D6 (Homo sapiens (Human), UniProt P10635). Put plainly: CYP enzyme inhibition, fluorescent substrate. Type of data set: in vitro ADME. The following applies: read-out: Cyp IC50 (μM) 2D6.
In a further data set the target is CYP2C9 (Homo sapiens (Human), UniProt P11712). Put plainly: CYP enzyme inhibition, fluorescent substrate. Type of data set: in vitro ADME. The settings on record: read-out: Cyp IC50 (μM) 2C9.
A short description of data set [2]: Turbidity assay of relative solubility in aqueous buffers.
The target of a further data set is Fms kinase (Homo sapiens (Human), UniProt P07333). Put plainly: Fms kinase biochemical activity assay (AlphaScreen, biotin-(E4Y)10 phosphorylation). (In general: In Alpha technology, singlet oxygen from a donor bead excites a nearby acceptor bead.)
The target of another data set is c-Kit kinase (Homo sapiens (Human), UniProt P10721). Put plainly: c-Kit kinase biochemical activity assay (AlphaScreen, biotin-(E4Y)10 phosphorylation). The settings on record: read-out: Biochemical activity (IC50 μM) Kit.
The target of the next data set is CYP3A4(BFC) (Homo sapiens (Human), UniProt P08684). Put plainly: CYP enzyme inhibition, fluorescent substrate. The settings on record: read-out: Cyp IC50 (μM) 3A4(BFC).
In the next data set the target is Flt-3 kinase (Homo sapiens (Human), UniProt P36888). Put plainly: Flt-3 kinase biochemical activity assay (AlphaScreen, biotin-(E4Y)10 phosphorylation). The settings on record: read-out: Biochemical (IC50 μM) Flt-3; 100 μM ATP.
The target of the next data set is CYP1A2 (Homo sapiens (Human), UniProt P05177).
Another data set deals with BCR-KIT/BaF3 cells (Homo sapiens, UniProt P10721). Put plainly: BCR-KIT/BaF3 cell proliferation assay (ATPlite). Type of data set: cell-based. The following applies: read-out: BCR/BaF3 (IC50 μM) Kit.

Where two headings read alike, the source gives them in different places.

Turning to `COc1ncc(CNc2ccc(Cc3c[nH]c4ncc(C)cc34)c(F)n2)cc1F`, the IC50 is less than 100 nM in data set [1]; greater than 0.1 µM in the data set on MV-4-11 cells; less than 0.1 µM on BCR-FMS/BaF3 cells (read-out: BCR/BaF3 (IC50 μM) Fms); less than 0.1 µM on BCR-FMS/BaF3 cells (read-out: Cell based (IC50 μM) BCR/BaF3 (Fms), 3 days); greater than 10 µM on CYP2C19; greater than 10 µM on CYP3A4(BQ). Further, the IC50 is greater than 10 µM at CYP2D6; greater than 10 µM on CYP2C9; less than 0.1 µM on Fms kinase (read-out: Biochemical (IC50 μM) Fms, 100 μM ATP); less than 0.1 µM at Fms kinase (read-out: Biochemical activity (IC50 μM) Fms); greater than 0.1 µM on c-Kit kinase; greater than 10 µM at CYP3A4(BFC). Besides, the IC50 is less than 0.1 µM at Flt-3 kinase, greater than 10000 nM on CYP1A2 and greater than 0.1 µM on BCR-KIT/BaF3 cells. The compound also yielded a BCR/BaF3 selectivity (Kit IC50/Fms IC50) on BCR-FMS/BaF3 cells (Kit IC50/Fms IC50, BCR-KIT/BaF3 vs BCR-FMS/BaF3 cells) greater than 20. Besides, in data set [2] (pH 1.4 as headed (method: SGF pH 1.5)), the “turbidity threshold (L, M, H) 1.4” value was “M (moderate solubility if the threshold concentration is 31.3 μM to 250 μM)”. In addition, in [2] (pH 4.5 (SIF)), the “turbidity threshold (L, M, H) 4.5” value is on record as “L (low solubility if the threshold concentration is <31.3 μM)”. Besides, in data set [2] (pH 6.8 (SIF)), the “turbidity threshold (L, M, H) 6.8” value was “L (low solubility if the threshold concentration is <31.3 μM)”. In addition, in data set [2] (pH 7.4 (HEPES)), the “turbidity threshold (L, M, H) 7.4” value is “L (low solubility if the threshold concentration is <31.3 μM)”. On Fms kinase (Kit IC50/Fms IC50, biochemical), this compound yielded a Biochemical activity selectivity (Kit IC50/Fms IC50) greater than 20.
